Settings: pigs, subcutaneous injection, external γ-counter

| Substance | T50% (time when 50% of the 125I-labelled peptide has disappeared from the site of injection) |
| --- | --- |
| Arg^4,Arg^9,Lys^15 somatostatin | 0.7 ± 0.1 h |
| Arg^4,Arg^9,Lys^15(N^ε-tetradecanoyl) somatostatin [Example 4] | 1.7 ± 0.5 h |

— patent US7576059B2, “Peptide derivatives” (Novo Nordisk A/S, priority 1995, dated 2009)
